Values quoted from earlier work, collected in patent US20180263919A1, “THERAPEUTIC ELECTROSPUN FIBER COMPOSITIONS” (The Johns Hopkins University, priority 2006, published 2018).

Details: in vivo, iv; cited from earlier work

Question: With VEGF as the substance, how does the biologic half-life read?
Answer: 50 minutes
